We go through ten compounds from patent US20090263341A1, “SOFT ANTICHOLINERGIC ESTERS” (priority 2005, published 2009).

In the assay the test system is guinea pig ileum (M3 muscarinic receptors). Description: Guinea pig ileum contraction assay, pA2 against carbachol. Conditions: carbachol as agonist, 4-6 strips, mean ± SD.

One may read the pA2 as the negative logarithm of the molar antagonist concentration that doubles the agonist concentration needed for the same response. Lower therefore signals lower antagonist potency. On to `C[N+]1(CC(=O)[O-])CCC(OC(=O)[C@](O)(c2ccccc2)C2CCCC2)C1` (some centres unmarked), for which the pA2 came out at 7.20 ± 0.19.

`COC(=O)C[N+]1(C)CCC(OC(=O)C(O)(c2ccccc2)C2CCCC2)C1.[Br-]` (racemic) came in with a pA2 of 7.90 ± 0.13.

`C[N@@+]1(CC(=O)[O-])CC[C@@H](OC(=O)[C@@](O)(c2ccccc2)C2CCCC2)C1`: the pA2 amounted to 5.14 ± 0.38.

The compound `C[N+]1(CC(=O)[O-])CCC(OC(=O)C(O)(c2ccccc2)C2CCCC2)C1` (centres unmarked) displayed a pA2 of 6.42 ± 0.30.

Consider `C[N@+]1(CC(=O)[O-])CC[C@H](OC(=O)[C@@](O)(c2ccccc2)C2CCCC2)C1`, for which the pA2 is 5.03 ± 0.26.

The compound `C[N@+]1(CC(=O)[O-])CC[C@H](OC(=O)[C@](O)(c2ccccc2)C2CCCC2)C1` yielded a pA2 of 7.15 ± 0.12.

As for `C[N@@+]1(CC(=O)[O-])CC[C@@H](OC(=O)[C@](O)(c2ccccc2)C2CCCC2)C1`, the pA2 is 6.32 ± 0.23. For the setting “listed as 2R1′R3′R-GA”, this compound returned a pA2 of 6.32.

In turn, `COC(=O)C[N+]1(C)CCC(OC(=O)[C@](O)(c2ccccc2)C2CCCC2)C1.[Br-]` (some centres unmarked) gave a pA2 of 8.31 ± 0.05.

Regarding `C[N@@+]1(CC(=O)[O-])CC[C@H](OC(=O)[C@@](O)(c2ccccc2)C2CCCC2)C1`, the pA2 is less than 4.

In the case of `C[N@+]1(CC(=O)[O-])CC[C@@H](OC(=O)[C@](O)(c2ccccc2)C2CCCC2)C1`, the pA2 is given as 7.45 ± 0.21.
